Reference: patent US12303503B1, “Use of dextromethorphan in combination with CYP2D6 and CYP3A4 enzyme inhibitors for the treatment of pain” (priority 2023, dated 2025)

Assay type: in vivo, human
Conditions: person, long standing (>20 years) pain; oral treatment

Structure (SMILES): CN1CC[C@]23c4c5ccc(O)c4O[C@H]2C(=O)CC[C@H]3[C@H]1C5 [hydromorphone]
- pain relief (upper extremity pain, baseline grade #8-9): not relieved
